Experimental findings from patent US5547845A (Duke University, priority 1994, dated 1996) are described below.

The chains behind the UniProt entries cited, without tags or fusion partners.
UniProt P21728, whole entry: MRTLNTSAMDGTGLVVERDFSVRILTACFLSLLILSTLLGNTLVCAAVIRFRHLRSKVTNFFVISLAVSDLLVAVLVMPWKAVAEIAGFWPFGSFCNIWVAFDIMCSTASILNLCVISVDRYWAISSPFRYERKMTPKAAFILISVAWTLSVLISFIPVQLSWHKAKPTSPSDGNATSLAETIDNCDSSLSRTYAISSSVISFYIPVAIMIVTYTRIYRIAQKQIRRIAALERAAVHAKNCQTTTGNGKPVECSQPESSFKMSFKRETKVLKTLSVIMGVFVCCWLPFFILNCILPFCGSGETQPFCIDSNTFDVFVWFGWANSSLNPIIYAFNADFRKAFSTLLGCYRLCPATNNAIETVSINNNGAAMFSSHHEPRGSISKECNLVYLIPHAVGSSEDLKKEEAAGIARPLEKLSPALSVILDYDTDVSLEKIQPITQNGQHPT

The target of the assay is human D1 dopamine receptor (clone HGL26) (Homo sapiens, UniProt P21728). The assay can be described thus: Adenylyl cyclase activity in membranes of mouse fibroblasts [L-M(TK^-)] expressing HGL26. The class given is biochemical. Particulars: SKF38393 and quinpirole, 1 μM each.

Consider `CCCN1CCC[C@@H]2Cc3n[nH]cc3C[C@H]21` [quinpirole], for which the “stimulation of adenylyl cyclase activity (in words)” value is given as “ineffective”.
